The results in this text go back to paper PMC9090141 (Pediatric blood & cancer, 2021).

SMILES strings stand for the structures. Structures can show the parent of a compound that is named as a salt.

This data set has as its system pediatric patients with recurrent or refractory solid and CNS tumors. Conditions: IV on day 1 and 15 of a 28-day cycle.

Take `COc1cccc(OCCCN)c1-c1cc(Nc2cnc(C#N)cn2)n[nH]1` [prexasertib, Prexasertib mesylate monohydrate]: the “recommended Phase 2 dose (RP2D)” value is reported as 150 mg/m^2.
